A selection: hits, their analogues and other compounds. The true share with any hit is near 16%.
miR-21 reporter: raises the signal of a miR-21 reporter | HeLa miR-21 FLuc reporter, luciferase, 48 h | Potency, µM (doses to about 38.3 µM), for the others: at the highest dose reporter change, positive = more light | 340,000 tested, under 10 active | AID 2288; active = well fitted rising curve with a large enough effect; inconclusive = small, poorly fitted or top-dose-only effect; inactive = no such curve, though single readings can be large or run the other way;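 also: % of control where 0% means no effect; miR-21 action dims this reporter so a rising signal means less miR-21 action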
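HeLa cells endogenously expressing miR-21, stably carrying CMV-driven firefly luciferase with a downstream miR-21 binding site, 2000 cells/well. Titrations up to approximately 40 uM, 48 hours; luciferase luminescence read.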
TDP1 block: inhibitors of human tyrosyl-DNA phosphodiesterase TDP1. Q9NUW8. recombinant TDP1, AlphaScreen DNA substrate cleavage. Potency, µM (top dose mostly 130 µM), without a hit: at the highest dose activity change, negative = inhibition, hits mostly inhibitors. actives 0.28% (n = 350,000); note: potency is the fitted concentration of half-maximal effect; % is set by controls: 0 for no effect and ±100 for the full control effect; nearly all actives have a fitted effect of over 40% in size
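E. coli-derived human Tdp1, 1 nM final. Cpd preinc 15 min RT; substrate 15 nM final, 5 min RT; AS bead mix 10 ug/ml final, 10 min RT. Signal loss = tyrosine-FITC cleavage. No-enzyme wells = max signal.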
TDP1 cell CPT: growth inhibition of DT40 Tdp1-/-;hTDP1 cells with camptothecin (screen for TDP1 inhibitors); Potency, µM (highest dose often 46.2 µM), for inactives: at the highest dose activity change, negative = growth inhibition, most hits filed as inhibitors; actives 12% (n = 420,000); chicken DT40 Tdp1-/-;hTDP1 cells + 20 nM CPT, ATP luminescence, 48 h; note: potency is the fitted concentration of half-maximal effect; % is set by controls: 0 for no effect and ±100 for the full control effect; nearly all actives have a fitted effect of over 55% in size
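Cell growth measured by CellTiter-Glo luminescence after a minimum 48 h, 37 C compound exposure with 20 nM CPT in Tdp1-knockout DT40 cells stably expressing hTDP1, seeded 400/well; qHTS titration format.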
uPA generation: blocks generation of uPA at the cell surface | cell surface uPA generation assay, qHTS | Potency, µM (series often up to 38.3 µM), without a hit: at the highest dose activity change, negative = inhibition, actives largely listed as inhibitors | actives 0.31% (n = 330,000) | AID 540303; active = well fitted inhibition curve with a large enough effect; inconclusive = small, poorly fitted or top-dose-only effect; inactive = no such curve, though single readings can be large or run the other way; tested in mouse RAW 264.7 cells; note: potency is the fitted concentration of half-maximal effect; % is set by controls: 0 for no effect and ±100 for the full control effect; nearly all actives have a fitted effect of over 55% in size
DT40 TDP1 no CPT: qHTS for Inhibitors of human tyrosyl-DNA phosphodiesterase 1 (TDP1): qHTS in cells in absence of CPT; DT40 Tdp1-/- hTDP1 cells, no CPT, ATP luminescence, 48 h; Potency, µM (series often up to 46.2 µM), inactives show top-dose activity change, negative = growth inhibition, most hits filed as inhibitors; actives 15% (n = 420,000); AID 686978, 2013; note: potency is the fitted concentration of half-maximal effect; % is set by controls: 0 for no effect and ±100 for the full control effect; nearly all actives have a fitted effect of over 55% in size
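Chicken DT40 Tdp1-/- cells stably complemented with human TDP1 were seeded at 400 cells/well with DMSO in place of 20 nM camptothecin. After compound pinning, cells grew at least 48 hr at 37 °C; viability read by CellTiter-Glo luminescence.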
Starred values were filed as active, the others as inactive; ? = inconclusive; . = not tested or not shown. Unless noted, calls come from the whole dose curve; as a rule, active = well fitted curve in the direction sought with a large enough effect; inconclusive = small, poorly fitted or top-dose-only effect, or another doubt; inactive = no such curve, though single readings can be large; an effect the other way counts as inactive or inconclusive.

smiles	TDP1 cell CPT	TDP1 block	uPA generation	DT40 TDP1 no CPT	miR-21 reporter
CC1(C)ON=C(c2ccc(C(F)(F)F)cc2)NC1=O	?	.	.	-23%	.
Cc1cc(Cl)c2oc(C(=O)N(C)Cc3nccn3C)c(C)c2c1	16µM*	.	-12%	7.3µM*	-24%
Cc1cc(Cl)c2oc(C(=O)N(C)Cc3cc(C)[nH]n3)c(C)c2c1	-14%	8%	-8%	-7%	-50%
O=C1N(c2ccccc2C(F)(F)F)O[C@@]1(c1ccccc1)C1CCCCC1	13µM*	-15%	-9%	?	.
O=C1N(c2ccccc2C(F)(F)F)O[C@@]1(c1ccccc1)C1CCCC1	-22%	?	?	0%	.
O=C1C2C3CCC(C3)C2C(=O)N1CNc1ccccc1 (configuration not stated)	?	5%	4%	-20%	-4%
CC(=O)OC1CCC2(C)C(CCC3C2CC(=O)C2(C)C3CC(C(C(C)=O)C(C)=O)C2C(C)=O)C1 (configuration not stated)	?	.	-1%	?	.
CCn1c(SCc2ccccc2C)nc(=O)c2c(C(=O)OC)cc(C3CC3)nc21	12µM*	8%	.	15µM*	-3%
CCn1c(SCc2c(F)cccc2Cl)nc(=O)c2c(C(=O)OC)cc(C3CC3)nc21	-8%	8%	.	?	15%
O=C(Cc1cccc(C(F)(F)F)c1)NCc1cccnc1	39%	2%	-16%	3%	-3%
CC1CC(C)CN(CC(=O)c2c[nH]c3ccccc23)C1 (configuration not stated)	?	.	2%	23µM*	-2%
COc1ccccc1N1CCN(CC(O)c2c(C)[nH]c3ccccc23)CC1 (configuration not stated)	?	.	-10%	16µM*	-6%

A different layout for part of the listing above.
CCn1c(SCc2c(F)cccc2Cl)nc(=O)c2c(C(=O)OC)cc(C3CC3)nc21
  TDP1 cell CPT: -8%
  TDP1 block: 8%
  uPA generation: .
  DT40 TDP1 no CPT: ?
  miR-21 reporter: 15%
O=C(Cc1cccc(C(F)(F)F)c1)NCc1cccnc1
  TDP1 cell CPT: 39%
  TDP1 block: 2%
  uPA generation: -16%
  DT40 TDP1 no CPT: 3%
  miR-21 reporter: -3%
CC1CC(C)CN(CC(=O)c2c[nH]c3ccccc23)C1 (configuration not stated)
  TDP1 cell CPT: ?
  TDP1 block: .
  uPA generation: 2%
  DT40 TDP1 no CPT: 23µM*
  miR-21 reporter: -2%
COc1ccccc1N1CCN(CC(O)c2c(C)[nH]c3ccccc23)CC1 (configuration not stated)
  TDP1 cell CPT: ?
  TDP1 block: .
  uPA generation: -10%
  DT40 TDP1 no CPT: 16µM*
  miR-21 reporter: -6%

Following part.
smiles	TDP1 cell CPT	TDP1 block	uPA generation	DT40 TDP1 no CPT	miR-21 reporter
O=C(CN1CCCCC1)c1c[nH]c2ccccc12	-5%	.	20%	19%	-1%
COc1ccccc1N1CCN(CC(=O)c2c(C)[nH]c3ccccc23)CC1	?	3%	11%	?	-10%
COc1ccccc1N1CCN(CC(=O)c2c[nH]c3ccccc23)CC1	?	3%	1%	10µM*	1%
O=C(Nc1ccc(N2CCN(c3ccccc3)CC2)c(F)c1)C1CC1	-1%	4%	2%	?	3%
O=C(O)Cn1nc(-c2ccc(Cl)cc2)ccc1=O	21%	.	0%	5%	-4%
Cc1cc(C)cc(N2C(=O)CC(Sc3nnnn3-c3ccccc3)C2=O)c1 (configuration not stated)	2.6µM*	2%	?	5.2µM*	?
Cc1ccc(N2C(=O)CC(Sc3cccs3)C2=O)cc1 (configuration not stated)	16µM*	9%	?	5.8µM*	3%
COC(=O)c1ccccc1SC1CC(=O)N(c2ccccc2)C1=O (configuration not stated)	?	3%	4%	-26%	-4%
Cn1nnnc1SC1CC(=O)N(c2ccccc2)C1=O (configuration not stated)	2.6µM*	-3%	0%	3.3µM*	3%
Cc1cccc(N2C(=O)CC(Sc3nnc(C)s3)C2=O)c1 (configuration not stated)	5.2µM*	2%	-2%	6.5µM*	-4%
O=C1CN(C(=O)c2ccccc2C(F)(F)F)C(c2ccccc2)c2cc(F)ccc2N1 (configuration not stated)	?	3%	.	?	-1%
O=C1CC(Sc2nnnn2C2CCCCC2)C(=O)N1c1ccccc1 (configuration not stated)	2.9µM*	0%	?	4.1µM*	?
Cc1cc(C)cc(N2C(=O)CC(Sc3ncn[nH]3)C2=O)c1 (configuration not stated)	2.6µM*	.	-10%	1.5µM*	8%
COc1cc(NC(=O)COC(=O)c2ccccc2F)cc(OC)c1	29%	2%	5%	-19%	-11%
O=C1CCN(Cl)C(=O)N1Cl	-4%	.	.	-7%	.
COc1ccc(-c2csc(C(O)c3ccc(F)c(OC)c3)n2)cc1 (configuration not stated)	13µM*	.	.	15µM*	.
COCc1cccc(-c2csc(C(O)c3cccc(OC)c3)n2)c1 (configuration not stated)	18µM*	.	.	?	.
COc1cccc(C(O)c2nc(-c3ccc4ccccc4c3)cs2)c1 (configuration not stated)	?	.	.	-29%	.
COc1ccc(-c2csc(C(O)c3ccc(F)c(OC)c3)n2)cn1 (configuration not stated)	16µM*	.	.	23µM*	.
COc1cc(C(O)c2nc(-c3ccccc3)cs2)ccc1F (configuration not stated)	7.3µM*	.	.	6.5µM*	.
NC(=O)C1CCN(c2cc(Cl)ccc2[N+](=O)[O-])CC1	14%	.	0%	-2%	2%
COc1cccc(C(O)c2nc(-c3ccc(F)c(Cl)c3)cs2)c1 (configuration not stated)	16µM*	.	.	?	.
COCc1cccc(-c2csc(C(O)c3ccc(F)c(OC)c3)n2)c1 (configuration not stated)	8.2µM*	.	.	21µM*	.
COc1ccc(NC(=O)CSc2nc(=O)n(CCN(C)C)c3c2CCCC3)cc1	-25%	4%	3%	-14%	.
CCOC(=O)c1cnc2ccc(Cl)cc2c1Nc1ccc(OCC)cc1	?	.	.	?	-1%
CCOC(=O)c1cnc2ccc(C)cc2c1NCCN1CCOCC1	-18%	.	-1%	-24%	-2%
CCOC(=O)c1cnc2ccc(C)cc2c1NCCc1ccc(OC)c(OC)c1	15µM*	.	.	15µM*	?
CCOC(=O)c1cnc2ccc(OCC)cc2c1NCCc1ccc(OC)c(OC)c1	3.3µM*	-6%	.	2.3µM*	-5%
CCCC/C(=N\NC(=O)c1ccc(Br)o1)c1ccccc1	-20%	5%	-3%	?	-46%
CCOC(=O)N1CCc2c(sc3c2c(=O)n(Cc2ccccc2)c(=O)n3Cc2ccccc2F)C1	?	-1%	20%	?	0%
CCOC(=O)N1CCc2c(sc3c2c(=O)n(Cc2ccccc2)c(=O)n3Cc2cc(C)ccc2C)C1	-1%	4%	.	7%	-3%
CCOC(=O)N1CCc2c(sc3c2c(=O)n(Cc2ccccc2)c(=O)n3Cc2cccc(C)c2)C1	13µM*	4%	16%	13µM*	8%
CCOC(=O)N1CCc2c(sc3c2c(=O)n(Cc2ccccc2)c(=O)n3Cc2c(F)cccc2Cl)C1	13µM*	4%	.	18µM*	-1%
